# Assay results reported in publication PMC4826920 (Evidence-based Complementary and Alternative Medicine : eCAM, 2016).
# The chains behind the UniProt entries cited, without tags or fusion partners.
# UniProt P21397, whole entry: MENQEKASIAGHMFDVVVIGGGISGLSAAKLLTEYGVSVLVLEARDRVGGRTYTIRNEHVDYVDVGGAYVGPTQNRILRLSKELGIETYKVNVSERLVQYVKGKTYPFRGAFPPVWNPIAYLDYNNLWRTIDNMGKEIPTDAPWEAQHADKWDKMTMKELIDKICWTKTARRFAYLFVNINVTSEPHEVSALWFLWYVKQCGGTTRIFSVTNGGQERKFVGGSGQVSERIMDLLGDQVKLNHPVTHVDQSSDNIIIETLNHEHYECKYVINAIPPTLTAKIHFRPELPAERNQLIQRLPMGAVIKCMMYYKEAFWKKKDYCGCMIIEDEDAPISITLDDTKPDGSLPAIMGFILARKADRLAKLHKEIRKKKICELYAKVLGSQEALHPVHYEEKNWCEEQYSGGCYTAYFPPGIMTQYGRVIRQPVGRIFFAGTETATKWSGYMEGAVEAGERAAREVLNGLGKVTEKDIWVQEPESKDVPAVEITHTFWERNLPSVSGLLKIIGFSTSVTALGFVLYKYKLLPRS
# Target: T1, hMAO-A (Homo sapiens, UniProt P21397)
# T1 construct: purchased Sigma-Aldrich
# Experiment: Recovery by dilution assay, hMAO-A
# Type: biochemical
# Details: 40 min preincubation at 10x IC50, 100-fold dilution; vs negative control
# Method: The microplates were then incubated for 30, 40, 50, and 60 min. RLDR was added, and luminescence was measured as mentioned above.
smiles,measurement,value
"C#CCN(C)CCCOc1ccc(Cl)cc1Cl [CLORG, Clorgyline, reference compound]",hMAO-A residual catalytic rate after dilution to 0.1x IC50,6%
